Shown are actives, neighbours in structure and some others; about 13% of the full set was active somewhere.
Sfp PPTase inh – inhibitors of Bacillus subtilis Sfp phosphopantetheinyl transferase | Q9F4F7 | Biochemical Sfp PPTase activity, qHTS | Potency, µM, inactives show max response, negative = inhibition, most hits filed as inhibitors | 310,000 tested, 3.5% active | AID 1490; active = well fitted inhibition curve with a large enough effect; inconclusive = small, poorly fitted or top-dose-only effect, or another doubt; inactive = no such curve, though single readings can be large or run the other way;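 note: the enzyme is Sfp with the accession as filed and its product quenches rhodamine fluorescence; potency is the fitted concentration of half-maximal effect; 0% = enzyme reaction without inhibitor and -100% = no enzyme wells; top concentration of the series not given in the record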
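Step 1, compound plus 15 nM Sfp-PPTase, 15 min, room temperature. Step 2, add rhodamine-CoA (5 uM) and BHQ-2-YbbR (12.5 uM). Step 3, read 525/598 nm fluorescence at 0 and 30 min.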
miR-21 reporter – miR-21 reporter, rising signal; Potency, µM (top dose mostly 38.3 µM), for the others: at the highest dose reporter change, positive = more light; 340,000 tested, under 10 active; HeLa miR-21 FLuc reporter, luciferase, 48 h; active = well fitted rising curve with a large enough effect; inconclusive = small, poorly fitted or top-dose-only effect; inactive = no such curve, though single readings can be large or run the other way;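 note: % of control where 0% means no effect; miR-21 action dims this reporter so a rising signal means less miR-21 action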
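HeLa cells stably expressing CMV-driven firefly luciferase with a downstream miR-21 binding sequence, endogenously expressing miR-21, were treated with titrations (up to about 40uM final) for 48 hours at 37 degree Celsius. Luciferase luminescence was read after lysis.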
Lamin A splicing – LMNA splicing modulation; AID 1487; Potency, µM (top dose mostly 46.1 µM), without a hit: at the highest dose ratio change, negative = inhibition, usual class: inhibitors; HeLa LMNA splicing GFP/RFP minigene ratio, 48 h; 200,000 tested, 0.01% active; active = well fitted inhibition curve with a large enough effect in the signal ratio, with a control signal flat, not every such curve was filed as active; inconclusive = small, poorly fitted or top-dose-only effect, or effect the other way, or a change in a side signal; the % refers to the signal ratio; note: potency is the fitted concentration of half-maximal effect; % is set by controls: 0 for no effect and ±100 for the full control effect
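S3 HeLa stable clones carrying a lamin A-EGFP splicing minigene plus DsRed2 were seeded at 600 cells/well in Opti-MEM with 2% FBS, pin-dosed and incubated 48 h at 37°C. Acumen cytometry (488 nm) gave the GFP/RFP total-intensity ratio.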
G9a block – inhibitors of human histone lysine methyltransferase G9a; Q96KQ7; G9a H3K9 monomethylation, AlphaScreen, 2 h; Potency, µM (top dose mostly 102 µM), for inactives: at the top dose activity, negative = inhibition, most hits filed as inhibitors; 350,000 tested, 8.8% active; AID 504332; note: potency is the fitted concentration of half-maximal effect; % is set by controls: 0 for no effect and ±100 for the full control effect; nearly all actives have a fitted effect of over 75% in size
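Enzyme 20 nM + cpd, 15 min RT; add b-H3K9 pep 500 nM / SAM 20 uM; 2 h RT; anti-H3K9me1 Ab 0.5 ug/mL + SA donor / anti-rabbit acceptor beads 20 ug/mL each, 10 min; AlphaScreen read.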
JMJD2E inh – JMJD2E (human) inhibition; B2RXH2; AID 2147; JMJD2E catalytic domain, FDH-coupled NADH fluorescence (FDH is formaldehyde dehydrogenase); 230,000 tested, 1.6% active; Potency, µM (series often up to 57.1 µM), without a hit: top-dose activity change, negative = inhibition, actives largely listed as inhibitors; active = well fitted inhibition curve with a large enough effect, not every such curve was filed as active; inconclusive = small, poorly fitted or top-dose-only effect, or another doubt; inactive = no such curve, though single readings can be large or run the other way;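 note: potency is the fitted concentration of half-maximal effect; 0% = wells with enzyme and -100% = buffer wells without enzyme; nearly all actives have a fitted effect of over 50% in size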
ALDH1A1 block – blocks purified human ALDH1A1 activity | P00352 | Purified ALDH1A1, NADH fluorescence, propionaldehyde substrate | Potency, µM (top dose mostly 75.3 µM), inactives show top-dose activity, negative = inhibition, hits mostly inhibitors | 220,000 tested, 7.3% active | AID 1030; active = well fitted inhibition curve with a large enough effect, not every such curve was filed as active; inconclusive = small, poorly fitted or top-dose-only effect, or another doubt; inactive = no such curve, though single readings can be large or run the other way;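 note: potency is the fitted concentration of half-maximal effect; plate controls were no enzyme wells and a reference inhibitor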
The depositor's hits bear a star; u = inconclusive; x = not tested or not shown; ! = not confirmed by another sample; [ ] = another dose, or the depositor's remark. Unless noted, calls come from the whole dose curve; as a rule, active = well fitted curve in the direction sought with a large enough effect; inconclusive = small, poorly fitted or top-dose-only effect, or another doubt; inactive = no such curve, though single readings can be large; an effect the other way counts as inactive or inconclusive.

Keys: A = Sfp PPTase inh; B = miR-21 reporter; C = Lamin A splicing; D = G9a block; E = JMJD2E inh; F = ALDH1A1 block
CCc1nnc(NC(=O)c2ccc(OC)cc2OC)s1
  A: -3%; B: -2%; C: -8%; D: -9%[2.33 µM]; E: -6%; F: 7.9µM*

O=C(Nc1cccc(F)c1)[C@H](CSCc1ccccc1)N1Cc2ccccc2C1=O
  A: x; B: 1%; C: x; D: -39%[59 µM]; E: x; F: x

COc1ccc(-n2c(SCC(=O)N/N=C(\C)c3cccnc3)nc3ccccc3c2=O)cc1
  A: 2%; B: -4%; C: x; D: x; E: -4%; F: x

Cc1nn(C)c(C)c1S(=O)(=O)N(CC(=O)NCCc1ccc(Cl)cc1)c1ccc(C(C)C)cc1
  A: x; B: -3%; C: x; D: 1%[59 µM]; E: x; F: x

COc1ccc(OC)c(NC(=O)c2nc(S(=O)(=O)Cc3ccccc3)ncc2Cl)c1
  A: -5%; B: 0%; C: x; D: 35µM*; E: x; F: x

CCc1nnc(NC(=O)c2cc(Cl)ccn2)s1
  A: -25%; B: -11%; C: x; D: 79µM*; E: x; F: x

Cc1nnc(NC(=O)c2nc(S(=O)(=O)Cc3ccccc3)ncc2Cl)s1
  A: u; B: u; C: x; D: 40µM*; E: x; F: x

CCOC(=O)C1=NN(C(=O)c2ccc(OC)cc2)C(O)(c2ccc(Cl)cc2)C1 (stereo not drawn)
  A: -14%; B: -10%; C: 0%; D: 17%[59 µM]; E: -25%; F: 18µM*

NCC(O)CC(=O)O (stereo not drawn)
  A: -14%; B: x; C: u; D: -6%[2.33 µM]; E: 8%; F: -2%

Cc1ccc(Nc2ccc(NCc3ccccc3)nn2)cc1C
  A: -12%; B: -59%; C: -10%; D: u; E: 13%; F: -4%

Cc1ccc(Nc2nnns2)cc1C
  A: 22µM*; B: 0%; C: -13%; D: u; E: -5%; F: 4µM*

CCN(CC)S(=O)(=O)c1cc(NS(=O)(=O)c2c(Cl)cccc2Cl)ccc1C
  A: 1%; B: 11%; C: u; D: u; E: 1%; F: u

CCN(CC)S(=O)(=O)c1cc(NS(=O)(=O)c2cccc(Cl)c2Cl)ccc1C
  A: 1%; B: 14%; C: u; D: 8%[59 µM]; E: -9%; F: 7.9µM*

Cc1ccc(NS(=O)(=O)c2ccc(Cl)s2)cc1S(=O)(=O)N(C)C
  A: 2%; B: 2%; C: u; D: -31%[59 µM]; E: -7%; F: 3.2µM*

CSc1nc2ccc(NC(=O)c3ccccn3)cc2s1
  A: 1%; B: -26%; C: x; D: u; E: x; F: x

CCN(CC)S(=O)(=O)c1cc(NS(=O)(=O)c2cccc(Cl)c2)ccc1C
  A: 10%; B: 9%; C: u; D: 20%[59 µM]; E: 4%; F: 18µM*

CSc1nc2ccc(NS(=O)(=O)c3ccc(Cl)s3)cc2s1
  A: 1%; B: -13%; C: u; D: -3%[2.33 µM]; E: -16%; F: 40µM*

CN(C)S(=O)(=O)c1cccc(NS(=O)(=O)c2ccc(Cl)s2)c1
  A: 9%; B: 3%; C: 1%; D: -3%[59 µM]; E: 2%; F: u

Cc1ccc(C(c2sc3nc(-c4ccco4)nn3c2O)N2CCC3(CC2)OCCO3)cc1 (stereo not drawn)
  A: x; B: -2%; C: 3%[46 µM]; D: -27%[59 µM]; E: x; F: x

CCCCS(=N)(=O)CC[C@H](N)C(=O)O (stereo partly drawn)
  A: x; B: x; C: -18%; D: 10µM*!; E: -8%; F: -6%

N[C@@H](CCCCO)C(=O)O
  A: x; B: x; C: x; D: x; E: x; F: -10%[13.5 µM]

O=C(N/N=C/c1cccnc1)c1ccc(NC(=O)c2cccc(Cl)c2)cc1
  A: 7%; B: -11%; C: x; D: 32µM*; E: x; F: x

C/C(=N\NC(=O)c1cc(O)ccc1O)c1cccc(NC(=O)c2ccc(Cl)cc2)c1
  A: -7%; B: -26%; C: x; D: 16µM*; E: x; F: x

O=C(N/N=C/c1cccnc1)c1ccc(NC(=O)c2ccc(Cl)cc2)cc1
  A: 3%; B: 10%; C: x; D: 45µM*; E: x; F: x

O=C(N/N=C/c1ccncc1)c1cccc(NC(=O)c2ccc(Cl)cc2)c1
  A: -19%; B: 1%; C: -2%; D: 16µM*; E: -10%; F: -4%

Cc1ccc(C(=O)N2CCN(CCc3ccncc3)CC2)cc1
  A: x; B: -1%; C: 6%[46 µM]; D: -2%[59 µM]; E: x; F: x

O=S(O)CO
  A: 2%; B: x; C: x; D: x; E: x; F: x

O=C(NCC1CCCO1)C(=O)N/N=C/c1cc(Cl)ccc1O (stereo not drawn)
  A: 26%; B: 2%; C: x; D: -2%; E: 13µM*; F: x

O=C(N/N=C\c1cccnc1)c1cc(-c2ccc(Cl)s2)[nH]n1
  A: -19%; B: -2%; C: -6%[9.22 µM]; D: 32µM*; E: -12%; F: -3%

O=C(N/N=C/c1cc(Cl)ccc1O)c1ccncc1
  A: 1%; B: 12%; C: x; D: 62%[12.7 µM]; E: 13µM*; F: x

Cc1ccc(-c2nc(N3CCCC(C)C3)c3ccccc3n2)cc1 (stereo not drawn)
  A: x; B: -8%; C: x; D: 47%[59 µM]; E: x; F: x

Cc1sc2c(c1C)c(=O)n(CCc1ccccc1)c(=O)n2Cc1cccc(F)c1
  A: x; B: -3%; C: x; D: -43%[59 µM]; E: x; F: x

Cc1ccc(CNC(=O)CCS(=O)(=O)c2cc(Br)cc3c2N(C(=O)C2CC2)CC3)o1
  A: 10µM*; B: -6%; C: -10%; D: u; E: -1%; F: 10µM*

CC(=O)N1CCc2cc(S(=O)(=O)C(C)CC(=O)NCc3ccc(C)o3)ccc21 (stereo not drawn)
  A: -24%; B: -2%; C: x; D: u; E: x; F: x

CC(=O)N1CCc2cc(S(=O)(=O)CCC(=O)NCc3ccc(C)o3)ccc21
  A: 25µM*; B: 1%; C: x; D: x; E: x; F: x

CC(=O)c1ccc(NC(=O)CSc2nc(C3CCCC3)nc3c2c(=O)n(C)c(=O)n3C)cc1
  A: x; B: -1%; C: u; D: -3%[59 µM]; E: x; F: x

Cc1cc(C)c(S(=O)(=O)N2CCCCC2CCNC(=O)C(=O)NC2CC2)c(C)c1 (stereo not drawn)
  A: x; B: x; C: x; D: -21%[2.33 µM]; E: x; F: x

CCCC(=O)Nc1nnc(SCc2cc(=O)n3ccccc3n2)s1
  A: x; B: -1%; C: -19%[46 µM]; D: -33%[59 µM]; E: x; F: x

Cc1ccc(C)c(OCCCC(=O)Nc2nccs2)c1
  A: -5%; B: 4%; C: u; D: 1%[59 µM]; E: 5%; F: 7%

COC(=O)CCC(=O)Nc1ccc(C)cc1OC(=O)CCC(=O)OC
  A: 79µM*; B: 0%; C: -3%; D: -17%[12.7 µM]; E: 8%; F: -11%

COC(=O)CCC(=O)Nc1cccc2c(NC(=O)CCC(=O)OC)cccc12
  A: 15%; B: -10%; C: -9%; D: -13%[12.7 µM]; E: 2%; F: u

COc1cc([N+](=O)[O-])ccc1NC(=O)CCCOc1ccccc1
  A: -3%; B: -12%; C: 13%; D: u; E: -3%; F: -9%

Cc1ccc(C)c(OCCCC(=O)Nc2ccccc2C(N)=O)c1
  A: 28%; B: -5%; C: x; D: 50µM*; E: 10%; F: 24µM*

COc1cc([N+](=O)[O-])ccc1NC(=O)CCCOc1cc(C)ccc1C
  A: -3%; B: -1%; C: -3%; D: u; E: -4%; F: 28µM*

O=C(O)CCNc1ncnc2nc[nH]c12
  A: x; B: x; C: x; D: x; E: x; F: 14%[13.5 µM]

COc1ccc(CC(=O)Nc2cccnc2)cc1
  A: 6%; B: -1%; C: x; D: -10%; E: x; F: x

Cc1ccc(NCc2ccc(C)s2)cc1
  A: -4%; B: -23%; C: x; D: x; E: x; F: x

CSc1oc(-c2ccco2)nc1S(=O)(=O)c1ccc(C)cc1
  A: -13%; B: -5%; C: x; D: 28µM*; E: x; F: x

NC(=O)CSc1oc(-c2ccco2)nc1S(=O)(=O)c1ccc(F)cc1
  A: -3%; B: 12%; C: x; D: u; E: x; F: x

COCCNc1oc(-c2ccco2)nc1S(=O)(=O)c1ccccc1
  A: 5%; B: 1%; C: x; D: u; E: x; F: x

C=CCNc1oc(-c2ccco2)nc1S(=O)(=O)c1ccccc1
  A: -19%; B: 4%; C: x; D: 25µM*; E: x; F: x

CSc1oc(-c2ccco2)nc1S(=O)(=O)c1ccccc1
  A: -7%; B: 2%; C: 7%; D: 32µM*; E: -5%; F: u

CSc1oc(-c2ccco2)nc1S(=O)(=O)c1ccc(F)cc1
  A: 79µM*; B: 1%; C: -3%; D: u; E: -2%; F: u

Just JMJD2E inh and G9a block (two entries from above):
mol,JMJD2E inh,G9a block
COC(=O)CCC(=O)Nc1cccc2c(NC(=O)CCC(=O)OC)cccc12,2%,-13%[12.7 µM]
CCCC(=O)Nc1nnc(SCc2cc(=O)n3ccccc3n2)s1,x,-33%[59 µM]

Source: PubChem
